We go through one compound from US20260224567A1, “METHODS FOR TREATING NEUROBLASTOMA WITH A DUAL ANAPLASTIC LYMPHOMA KINASE AND FOCAL ADHESION KINASE INHIBITOR” (The Regents of the University of Michigan, priority 2023, published 2026).

The test system of data set [1] is COG-N-415x. Nature of the data set: one-week survival assay, COG-N-415x. The note with it: 168 h, ALK F1174L, MYCN Amp, treated for one week. Format: cell-based.
In data set [2] the test system is Felix (ALK F1254C mutation). Nature of the data set: NB PDX model Felix. The class given is in vivo, mice. Particulars: ESK440 PO QD or BID.
Data set [3] deals with COG-N-452 (ALK F1174L mutation). Nature of the data set: NB PDX model COG-N-452. The note with it: COG-N-452 PDX; ESK440 PO QD or BID.
The test system of data set [4] is COG-N-453 (ALK F1174L mutation). Nature of the data set: NB PDX model COG-N-453. Particulars: COG-N-453 PDX; varying doses of ESK440 PO BID.

Usually IC50 stands for the concentration needed to halve the response being measured.

Consider `CNC(=O)c1ccccc1Nc1nc(Nc2ccc3c(c2OC)CCC[C@H](N2CCN(CCO)CC2)C3)ncc1Cl` [ESK440, (S)-2-((5-chloro-2-((6-(4-(2-hydroxyethyl)piperazin-1-yl)-1-methoxy-6,7,8,9-tetrahydro-5H-benzo[7]annulen-2-yl)amino)pyrimidin-4-yl)amino)-N-methylbenzamide], for which the IC50 in data set [1] is 189 nM. In data set [2], the “body weights of mice” value is on record as “not affecting”, the tumor growth result is recorded as “decreased” and the tumor weight result was “decreased”. Moreover, in data set [3], the “body weights of mice” value is given as “not affecting”, the tumor growth entry is “decreased” and the tumor weight result is listed as “decreased”. Besides, in data set [4], the “body weights of mice” value is given as “not affecting”, the tumor growth result is “decreased” and the tumor weight entry is recorded as “decreased”.
